Results published in patent US20160257930A1, “NEURONAL STEM CELL DIFFERENTIATION” (priority 2013, published 2016).

System: iPS-derived neurons
Experiment: Whole-cell patch-clamp, current clamp: spontaneous action potentials and resting Vm
Type: cell-based, human
Details: week 2, 1.8 mM Ca2+; 300 μM GABA added to 100 nM conotoxin; 1 μM BayK 8644 added to 10 μM bicuculline

NCCCC(=O)O [GABA, γ-aminobutyric acid]
rescue of spontaneous activity / excitability: re-established the ability of cells to fire action potentials
